SMILES strings stand for the structures.

The nature of the series: In vivo pharmacokinetic and oral bioavailability. The settings on record: male Swiss mice. On the procedure:
The in vivo pharmacokinetics and oral bioavailability of the compound of the examples was/is investigated in male Swiss mice (fed) following single intravenous (i.v.) bolus and oral (p.o.) administration. For the i.v. and p.o. solution formulations, the compound was/is dissolved in a 20% HP-β-CD solution. The pH of the formulations was/is around pH 4. All i.v. formulations were isotonic.

By Cmax is commonly meant the maximum level reached in the sampled fluid or tissue. One may read the Tmax as the time from dosing to the highest level. `O=C1CCc2cc(/C=C/C(=O)N3C[C@H]4CC(c5ccsc5)=C[C@H]4C3)cnc2N1`: where the note is “i.v. 2.5 mg/kg”, the AUC0-inf is 5037 ng·h/mL and the “Half life (t1/2)” value is 1.3 h. Under “p.o. 10 mg/kg”, the AUC0-inf stood at 14527 ng·h/mL, the Cmax was found to be 2670 ng/mL, the “Half life (t1/2)” value was found to be 2.8 h and the Tmax is recorded as 1.0 h.

For the origin of these results see patent publication US9617262B2, “Antibacterial cyclopental[C]pyrrole substituted 3,4-dihydro-1H-[1,8]naphthyridinones” (Janssen Sciences Ireland UC, priority 2011, dated 2017).
